Reference: paper PMC4722750

Tested on: P05067
Assay: SEC + native gel or EMSA; peptide (5 μM) in medium taken from human cerebral VSMC cultures after 30 min at 37 °C; Superdex 200 10/300, 1 mL/min, FPLC; Aβ fractions found by ELISA, then SDS- and native-PAGE with Western blot (82E1)

Substance: Aβ_(1-40)
- percent in higher order, SDS soluble aggregates: <10%

Substance: Aβ_(1-42)
- percent in higher order, SDS soluble aggregates: < 15-20%
